Chains of the proteins cited; added tags and fusions are not shown. Residues count along the entry.
UniProt O42275, 24-633: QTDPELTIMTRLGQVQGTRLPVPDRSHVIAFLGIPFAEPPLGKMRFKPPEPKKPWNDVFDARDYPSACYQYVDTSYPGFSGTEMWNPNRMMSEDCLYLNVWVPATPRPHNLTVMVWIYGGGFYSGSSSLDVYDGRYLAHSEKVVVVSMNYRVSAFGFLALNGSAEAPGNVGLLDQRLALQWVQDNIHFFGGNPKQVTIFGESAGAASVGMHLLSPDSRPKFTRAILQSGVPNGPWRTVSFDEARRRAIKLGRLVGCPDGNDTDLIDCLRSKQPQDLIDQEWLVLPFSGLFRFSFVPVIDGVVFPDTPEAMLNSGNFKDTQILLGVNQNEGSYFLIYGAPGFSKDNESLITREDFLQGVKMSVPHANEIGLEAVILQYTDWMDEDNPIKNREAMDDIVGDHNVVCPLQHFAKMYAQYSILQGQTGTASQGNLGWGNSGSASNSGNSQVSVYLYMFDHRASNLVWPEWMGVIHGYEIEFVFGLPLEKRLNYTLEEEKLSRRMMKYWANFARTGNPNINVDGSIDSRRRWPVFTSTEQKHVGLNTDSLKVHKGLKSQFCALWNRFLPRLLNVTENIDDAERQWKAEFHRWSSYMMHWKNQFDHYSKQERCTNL

In publication PMC4042574, “Phenolic Lipids Affect the Activity and Conformation of Acetylcholinesterase from Electrophorus electricus (Electric eel)” (Nutrients, 2014):

Target: acetylcholinesterase (AChE) from Electrophorus electricus (electric eel) (Electrophorus electricus, UniProt O42275)
Assay: Ellman assay, […] nm
Type: biochemical
Conditions: acetylthiocholine iodide (0.476 μM as printed), pH 8.0, 37 °C, 5 min pre-incubation

Methylcardol
IC50: 5 ± 0.41 µM
